These results are taken from ChEMBL document CHEMBL3621116, “Benzimidazole Derivatives as Potent JAK1-Selective Inhibitors” (J Med Chem, 2015).

Protein sequences, listed by entry. Tags and fused reporters are not part of them. Lines headed by an entry give the natural chain unless they say otherwise; changes in a name come on top.
UniProt P29597: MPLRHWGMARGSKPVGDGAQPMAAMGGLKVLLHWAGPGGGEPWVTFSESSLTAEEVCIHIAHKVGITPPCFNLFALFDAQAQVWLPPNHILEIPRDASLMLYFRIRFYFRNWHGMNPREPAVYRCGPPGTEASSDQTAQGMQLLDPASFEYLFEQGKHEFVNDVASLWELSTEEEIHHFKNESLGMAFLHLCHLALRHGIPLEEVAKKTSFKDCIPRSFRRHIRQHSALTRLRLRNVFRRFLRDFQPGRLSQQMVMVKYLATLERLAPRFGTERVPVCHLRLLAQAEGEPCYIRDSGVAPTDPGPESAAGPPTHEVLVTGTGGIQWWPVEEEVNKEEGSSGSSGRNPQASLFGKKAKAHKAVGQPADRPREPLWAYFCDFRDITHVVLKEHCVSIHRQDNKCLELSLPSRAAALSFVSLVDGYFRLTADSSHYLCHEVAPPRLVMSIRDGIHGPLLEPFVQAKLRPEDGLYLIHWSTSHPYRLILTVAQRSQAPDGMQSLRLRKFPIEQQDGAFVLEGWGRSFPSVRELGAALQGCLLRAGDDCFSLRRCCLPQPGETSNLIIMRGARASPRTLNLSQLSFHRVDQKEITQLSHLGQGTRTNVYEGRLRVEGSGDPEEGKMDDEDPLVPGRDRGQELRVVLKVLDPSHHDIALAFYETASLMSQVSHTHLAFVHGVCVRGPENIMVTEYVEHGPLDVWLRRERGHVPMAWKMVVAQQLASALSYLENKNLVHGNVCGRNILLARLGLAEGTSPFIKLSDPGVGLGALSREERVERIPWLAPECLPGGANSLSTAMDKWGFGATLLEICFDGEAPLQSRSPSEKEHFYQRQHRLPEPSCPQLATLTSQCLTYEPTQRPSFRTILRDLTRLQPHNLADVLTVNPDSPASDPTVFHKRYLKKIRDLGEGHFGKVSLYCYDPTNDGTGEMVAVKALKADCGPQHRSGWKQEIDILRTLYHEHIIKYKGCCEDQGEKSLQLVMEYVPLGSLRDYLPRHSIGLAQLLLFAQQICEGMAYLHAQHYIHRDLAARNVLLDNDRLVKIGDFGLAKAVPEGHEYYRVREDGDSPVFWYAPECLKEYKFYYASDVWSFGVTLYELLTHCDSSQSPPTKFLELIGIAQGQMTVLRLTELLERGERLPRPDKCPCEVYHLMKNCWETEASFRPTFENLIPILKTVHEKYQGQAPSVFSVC

One may read the IC50 as the midpoint of a concentration-inhibition curve. A high value points to a need for much substance.

The target in the test is Non-receptor tyrosine-protein kinase TYK2 (Homo sapiens, UniProt P29597). Kind of test: Inhibition of Tyk2 (unknown origin).

`CC[C@@](C)(Nc1ccnc(-c2c[nH]c3ncccc23)n1)C(=O)NCC(F)(F)F` [DECERNOTINIB]: it took 11 nM to reach half-maximal inhibition (IC50). This counts as double-digit nanomolar.
